Laboratory results as given in PMC11535040, “Requirement of Nek2a and cyclin A2 for Wapl-dependent removal of cohesin from prophase chromatin” (The EMBO Journal, 2024).
Numbering of substitutions follows the chain as printed.

How the values were obtained:
Assay in all cases: pull-down; Flag-Pds5b variants affinity-purified from Nek2a- and cyclin A2-free prometaphase cells, incubated on the beads with recombinant Nek2a and/or Cdk1/2-cyclin A2 and ATP, washed, then incubated with recombinant Wapl (2 µl) and sororin (0.3 µg) in 15 µl cleavage buffer without ATP, 20 min at 37 °C; immunoblotting
Conditions in all cases: both partners purified
[1] = target: T1, Flag-tagged Pds5b-Ser1161,1166,1177,1182,1209Ala (5A), untreated or exposed to Nek2a and Cdk1/2-cyclin A2 (human, UniProt Q9NTI5 1-1447, Ser1161,1166,1177,1182,1209Ala | Ser1161,1166,1177,1182,1209Ala | …)
T1 construct: Pds5b, human; 5A is resistant to both kinases; also called Pds5b-5A
T1 sequence (looked up): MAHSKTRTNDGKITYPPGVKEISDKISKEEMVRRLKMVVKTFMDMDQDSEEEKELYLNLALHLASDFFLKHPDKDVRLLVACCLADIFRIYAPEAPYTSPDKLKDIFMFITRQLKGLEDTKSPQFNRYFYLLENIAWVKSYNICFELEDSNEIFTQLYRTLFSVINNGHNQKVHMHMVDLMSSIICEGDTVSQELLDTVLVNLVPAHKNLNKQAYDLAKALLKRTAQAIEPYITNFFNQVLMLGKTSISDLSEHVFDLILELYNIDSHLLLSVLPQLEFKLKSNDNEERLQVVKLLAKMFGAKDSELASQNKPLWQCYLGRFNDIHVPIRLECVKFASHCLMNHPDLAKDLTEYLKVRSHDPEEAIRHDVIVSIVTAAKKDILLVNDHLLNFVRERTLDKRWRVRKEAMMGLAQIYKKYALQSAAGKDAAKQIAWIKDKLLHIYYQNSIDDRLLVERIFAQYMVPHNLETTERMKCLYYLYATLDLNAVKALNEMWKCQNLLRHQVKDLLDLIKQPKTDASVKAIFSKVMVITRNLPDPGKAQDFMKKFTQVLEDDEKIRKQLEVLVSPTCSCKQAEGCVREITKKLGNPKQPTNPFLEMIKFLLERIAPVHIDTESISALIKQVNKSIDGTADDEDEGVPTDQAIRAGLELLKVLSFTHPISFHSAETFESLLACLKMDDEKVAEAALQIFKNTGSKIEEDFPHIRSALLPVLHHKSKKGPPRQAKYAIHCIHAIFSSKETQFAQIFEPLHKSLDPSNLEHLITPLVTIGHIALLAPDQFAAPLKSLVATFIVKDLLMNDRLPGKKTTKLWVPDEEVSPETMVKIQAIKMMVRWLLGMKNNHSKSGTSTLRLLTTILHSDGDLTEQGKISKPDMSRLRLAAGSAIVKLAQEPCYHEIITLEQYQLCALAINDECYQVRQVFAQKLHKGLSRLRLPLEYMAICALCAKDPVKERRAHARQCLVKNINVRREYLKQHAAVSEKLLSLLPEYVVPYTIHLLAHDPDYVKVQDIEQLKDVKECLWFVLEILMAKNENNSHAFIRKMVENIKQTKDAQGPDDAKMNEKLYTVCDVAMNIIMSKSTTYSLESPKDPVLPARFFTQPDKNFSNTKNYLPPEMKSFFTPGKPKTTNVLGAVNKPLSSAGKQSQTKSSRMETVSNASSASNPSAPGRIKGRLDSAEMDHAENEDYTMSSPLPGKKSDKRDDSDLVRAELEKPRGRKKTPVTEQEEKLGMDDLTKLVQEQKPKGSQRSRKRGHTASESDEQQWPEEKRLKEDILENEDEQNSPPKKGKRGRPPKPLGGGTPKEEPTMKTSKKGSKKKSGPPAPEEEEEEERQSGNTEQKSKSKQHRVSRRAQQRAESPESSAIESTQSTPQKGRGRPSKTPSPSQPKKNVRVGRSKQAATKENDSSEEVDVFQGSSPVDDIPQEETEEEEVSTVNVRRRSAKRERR

[2] = target: T2, Flag-tagged Pds5b-Ser1161,1166Ala (2A), untreated or exposed to Cdk1/2-cyclin A2 (human, UniProt Q9NTI5 1-1447, Ser1161,1166Ala | Ser1161,1166Ala)
T2 construct: Pds5b, human; 2A is resistant to Cdk1/2-cyclin A2; also called Pds5b-2A
T2 sequence (looked up): T1 sequence (looked up) with A1177S, A1182S, A1209S

[3] = target: T3, Flag-tagged Pds5b-Ser1177,1182,1209Ala (3A), untreated or exposed to Nek2a (human, UniProt Q9NTI5 1-1447, Ser1177,1182,1209Ala | Ser1177,1182,1209Ala | Ser1177,1182,1209Ala)
T3 construct: Pds5b, human; 3A is resistant to Nek2a; also called Pds5b-3A
T3 sequence (looked up): T1 sequence (looked up) with A1161S, A1166S

Measured: binding result

B1: His6-SUMO3-sororin (natural protein, human, UniProt Q96FF9 1-252, looked up)
chain: MSGRRTRSGGAAQRSGPRAPSPTKPLRRSQRKSGSELPSILPEIWPKTPSAAAVRKPIVLKRIVAHAVEVPAVQSPRRSPRISFFLEKENEPPGRELTKEDLFKTHSVPATPTSTPVPNPEAESSSKEGELDARDLEMSKKVRRSYSRLETLGSASTSTPGRRSCFGFEGLLGAEDLSGVSPVVCSKLTEVPRVCAKPWAPDMTLPGISPPPEKQKRKKKKMPEILKTELDEWAAAMNAEFEAAEQFDLLVE
notes: sororin; Stored as His6-SUMO3-sororin; no cleavage of the tags is told; also called recombinant sororin; source: E. coli Rosetta 2 DE3 (pET28-derivative), purified over Ni-NTA agarose, dialysed; not shown: His6, N-terminal, kept; SUMO3, N-terminal, kept
binds: [1] | [2] | [3]
